Test results published in patent US12564597B2 (priority 2020, dated 2026).
Read-outs that look alike come from different tables or passages of the source.

Legend:
[1] = Plasma pharmacokinetics and brain distribution in male Wistar rats after a single intraperitoneal dose
[2] = Buffer control for chemical instability in the incubation buffer; details: Kphos buffer pH 7.4, 37° C., no microsomes, minus NADPH
[3] = HLM; for Percentage turnover of test compounds (percent remaining): 10 μM, +NADPH
[4] = Metabolic stability and noribogaine formation in rat liver microsomes (RLM); details: for Percentage turnover of test compounds (percent remaining): 10 μM, +NADPH
[5] = 0.08 h after ibogaine 40 mg/kg i.p.
[6] = 0.25 h after ibogaine 40 mg/kg i.p.
[7] = 0.5 h after ibogaine 40 mg/kg i.p.
[8] = 1 h after ibogaine 40 mg/kg i.p.
[9] = 2 h after ibogaine 40 mg/kg i.p.
[10] = 3 h after ibogaine 40 mg/kg i.p.
[11] = brain, analyte after ibogaine 40 mg/kg i.p.
[12] = plasma, analyte after ibogaine 40 mg/kg i.p.

Ibogaine [reference compound]
Mean brain concentration [1, 5]: 24369 ng/g | Mean plasma concentration [1, 5]: 1545 ng/mL | Mean brain concentration [1, 6]: 25902 ng/g | Mean plasma concentration [1, 6]: 1269 ng/mL | Mean brain concentration [1, 7]: 10946 ng/g | Mean plasma concentration [1, 7]: 987 ng/mL | Mean brain concentration [1, 8]: 7013 ng/g | Mean plasma concentration [1, 8]: 769 ng/mL | Mean brain concentration [1, 9]: 4778 ng/g | Mean plasma concentration [1, 9]: 530 ng/mL | Mean brain concentration [1, 10]: 3899 ng/g | Mean plasma concentration [1, 10]: 404 ng/mL | AUClast [1, 11]: 24577.92 ng·h/g | Tmax [1, 11]: 15 min | AUClast [1, 12]: 2138.81 ng·h/mL | Cmax [1, 12]: 1545.13 ng/mL | Tmax [1, 12]: 4.8 min | % Remaining at 60 min (Buffer) [2]: 103% | CLh, int [3]: 7 mL/min/kg | t1/2 [3]: >60 min | Percentage turnover of test compounds (percent remaining) ([3]; 0 min): 100% | Percentage turnover of test compounds (percent remaining) ([3]; 15 min): 98% | Percentage turnover of test compounds (percent remaining) ([3]; 30 min): 94% | Percentage turnover of test compounds (percent remaining) ([3]; 60 min): 81% | % Remaining at 60 min (+NADPH) ([3]; summary): 81% | % Remaining at 60 min (−NADPH) ([3]; without NADPH): 98% | CLh, int [4]: 306 mL/min/kg | t1/2 [4]: 8 min | Percentage turnover of test compounds (percent remaining) ([4]; 0 min): 100% | Percentage turnover of test compounds (percent remaining) ([4]; 5 min): 86% | Percentage turnover of test compounds (percent remaining) ([4]; 15 min): 56% | Percentage turnover of test compounds (percent remaining) ([4]; 30 min): 23% | Percentage turnover of test compounds (percent remaining) ([4]; 60 min): 1% | % Remaining at 60 min (+NADPH) ([4]; summary): 1%
